Values of other authors in patent US8324156B2, “Oral insulin therapies and protocol” (Emisphere Technologies, Inc., priority 2003, dated 2012).

Settings: food effect; cited from earlier work

## CN(CCOc1ccc(CC2SC(=O)NC2=O)cc1)c1ccccn1 (stereo not shown) [AVANDIA® thiazolidinedione, rosiglitazone]
  decrease in Cmax when given with food: 28%
